In US20240173295A1, “A STABLE, EMULSION-FORMING LIQUID COMPOSITION COMPRISING AMINO ACIDS” (Brain Luxury Inc., priority 2021, published 2024):

Experiment: Chemical stability of liquid composition on storage
Type: physicochemical
Conditions: stored at 6° C. or 22° C.
Procedure: The chemical stability of a disclosed liquid composition stored at 6° C. or 22° C. was evaluated at 2 months and three months. The microbial stability and shelf life was also evaluated. A liquid composition having a pH of about 3.7 was subjected to high pressure processing at 6000 bar for two cycles of 5 minutes.

amount in liquid composition at 2 Months (chemical stability): 5.6 mg/60 mL
Substance: Vitamin E
